# scFv variants of Ab-91 (heavy chain) against a SARS-CoV-2 spike peptide

Values reported by Engelhart et al. 2022, doi:10.1038/s41597-022-01779-4 (FLAb copy).

Target peptide (SARS-CoV-2 spike, HR2 region): PDVDLGDISGINAS

The variants keep the light chain, the linker and the frameworks of Ab-91 (scFv order VL, three GGGGS repeats, VH).
VL: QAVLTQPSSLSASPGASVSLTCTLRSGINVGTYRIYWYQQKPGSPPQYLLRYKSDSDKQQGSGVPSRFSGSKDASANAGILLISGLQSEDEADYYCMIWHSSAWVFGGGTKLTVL
VH: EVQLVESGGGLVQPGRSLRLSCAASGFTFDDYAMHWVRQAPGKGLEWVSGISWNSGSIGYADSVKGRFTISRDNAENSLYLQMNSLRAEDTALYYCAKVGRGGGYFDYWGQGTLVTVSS

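Library AAYL51 holds single substitutions and randomly drawn double and triple substitutions in the CDRs. Affinity was read by AlphaSeq, a pooled yeast mating assay with surface-displayed partners. The frequency of each diploid, read from paired DNA barcodes, reflects how well the two displayed proteins bind. The ratio of observed to expected reads was calibrated, replicate by replicate, on BCL2-family standards whose Kd was known from biolayer interferometry. The assay was run in three technical replicates.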

Each variant is given by its three heavy chain CDRs, as the data file delimits them; those of the parent are GFTFDDYAMH, GISWNSGSIGYADSVK, VGRGGGYFDY.
Every variant below is changed at G26 of the VH (sequential numbering).
Each Kd is an estimate from the mating assay, the geometric mean of the replicates in which the pair was seen; lower is stronger.
An entry "no signal" has no value in the source: the pair was not observed among the diploids in any replicate. This suggests poor binding but is not conclusive.

| CDR-H1 | CDR-H2 | CDR-H3 | apparent Kd | seen in | empty controls |
|---|---|---|---|---|---|
| NFNFDDYAMG | GISWNSGSIGYADSVK | VGRGGGYFDY | 630 µM | 3 of 3 | 4 of 9 |
| HFTFDDYWMH | GISWNSHSIGYADSVK | VGRGGGYFDY | 1.9 µM | 1 of 3 | 0 of 9 |
| YFTFDDYAMH | GISWNSGSIGYADSVK | FGRGGGYFDY | no signal | 0 of 3 | 1 of 9 |
| KFTFDDYAMH | GISWPSGSIGYADSVK | VGQGGGYFDY | no signal | 0 of 3 | 2 of 9 |
| VFTFDDYAMH | GISWNSGSIGYADSVK | LGRSGGYFDY | 98 µM | 2 of 3 | 6 of 9 |
| DFTFDDYAMH | GIQWNSGSIGVADSVK | VGRGGGYFDY | 99 µM | 3 of 3 | 4 of 9 |
| QFTFDDYAMH | GESWNSGSIGYADSVK | VGRGGGYFHY | no signal | 0 of 3 | 1 of 9 |
| DFTFDDYAMH | GISWNSGKIGYADSVK | VGRGGGYTDY | no signal | 0 of 3 | 0 of 9 |
| CFTFDDYAMH | GISWNSKSIGYADSFK | VGRGGGYFDY | no signal | 0 of 3 | 1 of 9 |
| YFTFDFYAMH | GISWNSGSRGYADSVK | VGRGGGYFDY | no signal | 0 of 3 | 2 of 9 |
| CFTFDDYAMH | MISWNSGSIGYAHSVK | VGRGGGYFDY | 36 µM | 3 of 3 | 2 of 9 |
| EFTFDDYAMH | GISWCSGSIGYADSCK | VGRGGGYFDY | no signal | 0 of 3 | 0 of 9 |
| EFPFDDYAAH | GISWNSGSIGYADSVK | VGRGGGYFDY | 150 µM | 2 of 3 | 8 of 9 |
| FFTFDDYVFH | GISWNSGSIGYADSVK | VGRGGGYFDY | no signal | 0 of 3 | 0 of 9 |
| NFTFDDYAMH | TINWNSGSIGYADSVK | VGRGGGYFDY | 8.1 µM | 1 of 3 | 1 of 9 |
| DFTFDDYAMH | GPSWNSGSIGYADSVK | VGRGGGSFDY | 3.6 µM | 1 of 3 | 0 of 9 |
| EFTFDDYAMH | RISWNSGSIGYADSVK | VNRGGGYFDY | no signal | 0 of 3 | 1 of 9 |
| PFTFDDLAMH | GISWNSGSIGYADSVK | VGRQGGYFDY | no signal | 0 of 3 | 0 of 9 |
| KFTFDDYAMH | GISWNSGSIGNADSVK | VGRGTGYFDY | 6.7 µM | 1 of 3 | 2 of 9 |
| SFTFDDYANH | GISWNSGSIGYADSVK | VGRGGGYFAY | 60 µM | 1 of 3 | 1 of 9 |
| AFTFDDYAMH | GISWNSGSIGYADSVK | VGRGGGYFDY | 23 µM | 1 of 3 | 0 of 9 |
| RFTFDDYKMH | DISWNSGSIGYADSVK | VGRGGGYFDY | no signal | 0 of 3 | 2 of 9 |
| IFTFDDYAMH | GYSWNSGSIGYADSVK | VWRGGGYFDY | 450 µM | 3 of 3 | 6 of 9 |
| EFTFDDYSMH | GKSWNSGSIGYADSVK | VGRGGGYFDY | 800 µM | 3 of 3 | 7 of 9 |
| WFTFDDYAMH | GISWNSGSIGYMDSDK | VGRGGGYFDY | no signal | 0 of 3 | 1 of 9 |
| KFTFDDYAMH | GKSWNSGSIGYADSVK | VGRGGGYFDY | 88 µM | 3 of 3 | 6 of 9 |
| YFTFDDYAMH | GISMNSGSIHYADSVK | VGRGGGYFDY | no signal | 0 of 3 | 0 of 9 |
| VFTLDDYAMH | GDSWNSGSIGYADSVK | VGRGGGYFDY | no signal | 0 of 3 | 0 of 9 |
| WFTFSDYAMH | GISWNSGSIGYADSVK | VGRGWGYFDY | 14 µM | 2 of 3 | 3 of 9 |
| PFTFDDYAMH | GISWNSGSIGYADSVK | VGRGGGAFDA | 190 µM | 3 of 3 | 3 of 9 |
| YFTFDDYAMH | GISWNSGSIWYADSVK | VGRGGGYFDV | no signal | 0 of 3 | 1 of 9 |
| PFLFDDYAMH | GISWNSGSIGYADSVK | VGRIGGYFDY | no signal | 0 of 3 | 2 of 9 |
| AFTFDDYAMH | GISWNSGSIGYADSVK | VGRGQGYFQY | no signal | 0 of 3 | 1 of 9 |
| CFTFDDYAMH | GISWNTGSIGYADSVK | VGRTGGYFDY | 80 µM | 2 of 3 | 1 of 9 |
| KFTFDDYAMH | GISWNSGSIGYATSVK | VARGGGYFDY | no signal | 0 of 3 | 1 of 9 |
| LITFDDYAMH | GISWNSGSEGYADSVK | VGRGGGYFDY | 9.7 µM | 1 of 3 | 3 of 9 |
| EFTFDDYAMH | GISWCSGSIGYADSGK | VGRGGGYFDY | no signal | 0 of 3 | 3 of 9 |
| YFTFDDYAMH | GISWNSGSIGYADSKK | VGPGGGYFDY | no signal | 0 of 3 | 0 of 9 |
| VFTFDDYAMH | GISWNSGSIGYADSVK | VGRGGYYFDY | no signal | 0 of 3 | 3 of 9 |
| SFTFDDYAMH | GISWASGSIGYADSVK | VGRNGGYFDY | no signal | 0 of 3 | 1 of 9 |
| KFTFDDYAMH | GISWNSGSIGYADSVH | VGEGGGYFDY | 15 µM | 1 of 3 | 4 of 9 |
| QFTFDYYAMH | GISWNSGSIGYADSVK | VHRGGGYFDY | 20 µM | 1 of 3 | 0 of 9 |
| YFTFDDYAMH | GISWNSGSKGYADSVK | VGRGGGYCDY | 57 µM | 2 of 3 | 4 of 9 |
| TFTFDDYAMH | GISWLSDSIGYADSVK | VGRGGGYFDY | no signal | 0 of 3 | 0 of 9 |
| PFTFDDYAMH | GISWNSGSIGLADSVK | VGRGGGYFDY | 260 µM | 2 of 3 | 4 of 9 |
| VFTFDDYAMH | GISWNSGSIGYADSVK | VGRGNGGFDY | 360 µM | 3 of 3 | 7 of 9 |
| NFTHDDYAMH | GISWNSGSIGYADSVK | VGRGGGYFDY | no signal | 0 of 3 | 0 of 9 |
| VFTFDDYAMH | GISWNSGSIGAADSVK | VGMGGGYFDY | 99 µM | 2 of 3 | 7 of 9 |
| PFTFDDYAMH | MISWNSGSIGYADSVK | VGRGGGCFDY | no signal | 0 of 3 | 0 of 9 |
| HFTFDDYAMH | CISWNSGSIGYADSVK | VGRGGGYFEY | no signal | 0 of 3 | 0 of 9 |
| LFTFDDYAMH | GISWNSGSIGYAHSVK | VGRGGGRFDY | 110 µM | 1 of 3 | 2 of 9 |
| SFTFDDYAMH | GISYNSGSIGYADSAK | VGRGGGYFDY | no signal | 0 of 3 | 0 of 9 |
| CFTFDDYAMH | GISWLSGSIGYADSVK | VGRGGPYFDY | no signal | 0 of 3 | 1 of 9 |
| YFTFDDYAMH | GISCNSGSIGYADSVK | VGRGGGYFDN | 1.2 mM | 1 of 3 | 3 of 9 |
| HFTFDDYAMH | GASWHSGSIGYADSVK | VGRGGGYFDY | 990 nM | 1 of 3 | 2 of 9 |
| RFMFDDYAMH | GISWNSGSIGYADSVK | VGRGGHYFDY | no signal | 0 of 3 | 0 of 9 |
| MFTFDDYAML | GISWNSGSIGYADSVK | VGRGGGYLDY | 8.8 µM | 1 of 3 | 3 of 9 |
| HFTFDDYAMH | GIVWNSGSIGYADSGK | VGRGGGYFDY | no signal | 0 of 3 | 2 of 9 |
| TFTFTDYAMH | GISWNSGSIGYADSVK | VGRYGGYFDY | 230 µM | 3 of 3 | 3 of 9 |
| FFTFDDYAMH | GISINSGSIGYHDSVK | VGRGGGYFDY | no signal | 0 of 3 | 0 of 9 |
| QPTFDAYAMH | GISWNSGSIGYADSVK | VGRGGGYFDY | no signal | 0 of 3 | 1 of 9 |
| HFTFDDYAMH | GISWNSGSIGYADSVK | VQRGGPYFDY | 100 µM | 1 of 3 | 3 of 9 |
| MFTFDDWAMH | WISWNSGSIGYADSVK | VGRGGGYFDY | 1.2 µM | 1 of 3 | 0 of 9 |
| VFTFDDYAMA | GRSWNSGSIGYADSVK | VGRGGGYFDY | 200 µM | 1 of 3 | 2 of 9 |
| SFNFDDYAMH | GISWNSGSIGYRDSVK | VGRGGGYFDY | no signal | 0 of 3 | 0 of 9 |
| HKTFDDYAMH | GISWNSGSIGYADSVK | VGRGGGYFDY | 18 µM | 1 of 3 | 0 of 9 |
| DFTFDDYAMH | GISWNSGSIAYADSVD | VGRGGGYFDY | no signal | 0 of 3 | 0 of 9 |
| DFTFDDYAMH | GISWNSGSIGYADSVK | VLRGGGYFDS | no signal | 0 of 3 | 1 of 9 |
| PFTFDDYAMH | KISWNSGSIGYADSVK | VGRGGGYFDY | no signal | 0 of 3 | 0 of 9 |
| NFTFDDYAMH | GISWNSGSIGYAVSVK | VGRGGGYFDY | 27 µM | 2 of 3 | 4 of 9 |

10 of these entries, quoted again:

| CDR-H1 | CDR-H2 | CDR-H3 | apparent Kd | seen in | empty controls |
|---|---|---|---|---|---|
| EFTFDDYAMH | GISWCSGSIGYADSCK | VGRGGGYFDY | no signal | 0 of 3 | 0 of 9 |
| WFTFDDYAMH | GISWNSGSIGYMDSDK | VGRGGGYFDY | no signal | 0 of 3 | 1 of 9 |
| KFTFDDYAMH | GKSWNSGSIGYADSVK | VGRGGGYFDY | 88 µM | 3 of 3 | 6 of 9 |
| EFTFDDYAMH | RISWNSGSIGYADSVK | VNRGGGYFDY | no signal | 0 of 3 | 1 of 9 |
| PFTFDDYAMH | KISWNSGSIGYADSVK | VGRGGGYFDY | no signal | 0 of 3 | 0 of 9 |
| VFTLDDYAMH | GDSWNSGSIGYADSVK | VGRGGGYFDY | no signal | 0 of 3 | 0 of 9 |
| NFTHDDYAMH | GISWNSGSIGYADSVK | VGRGGGYFDY | no signal | 0 of 3 | 0 of 9 |
| RFMFDDYAMH | GISWNSGSIGYADSVK | VGRGGHYFDY | no signal | 0 of 3 | 0 of 9 |
| YFTFDDYAMH | GISWNSGSKGYADSVK | VGRGGGYCDY | 57 µM | 2 of 3 | 4 of 9 |
| HKTFDDYAMH | GISWNSGSIGYADSVK | VGRGGGYFDY | 18 µM | 1 of 3 | 0 of 9 |

Nonspecific signal, from three strains lacking the peptide, appeared in 21% of pairings of library AAYL51, centred on 34 µM (5% of these signals below 1.8 µM); values are not corrected for it. For each scFv, signals with the empty controls are counted beside the result.
For reference, the parent read 72 nM as the reference entry and 7.5 nM as a member of this library.